# scFv variants of Ab-14 (light chain) against a SARS-CoV-2 spike peptide

Target peptide (SARS-CoV-2 spike, HR2 region): PDVDLGDISGINAS

Parent: Ab-14, a human scFv built as VH, three GGGGS repeats, VL. Only the CDRs of the light chain vary.
VH: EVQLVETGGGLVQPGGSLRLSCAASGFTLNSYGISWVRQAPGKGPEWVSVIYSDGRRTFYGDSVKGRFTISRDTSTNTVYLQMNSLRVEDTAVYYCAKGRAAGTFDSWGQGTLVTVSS
VL: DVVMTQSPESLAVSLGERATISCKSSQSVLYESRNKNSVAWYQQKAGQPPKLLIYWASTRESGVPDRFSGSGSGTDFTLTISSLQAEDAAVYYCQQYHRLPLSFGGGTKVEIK

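The starting antibody came from a phage panning campaign against this peptide. Variants in AAYL50 differ from the parent at up to three CDR positions; double and triple changes were sampled at random. The assay is AlphaSeq: two haploid yeast populations carry antibody and antigen on their surface. Binding brings cells together so that they mate, and sequencing counts the barcode pairs among the diploids. The ratio of observed to expected reads was calibrated, replicate by replicate, on BCL2-family standards whose Kd was known from biolayer interferometry. There are three technical replicates.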

Sequences are complete VL domains. Numbers give log10(Kd / nM), so 0 is 1 nM and 3 is 1 µM. Smaller is tighter. Replicates are averaged; those with no signal do not enter the mean. Where no diploid with the target was found in that replicate, the entry reads "n.d.": below detection, most likely a poor binder, though not proof of it.

VL	replicates, log10 nM	mean log10 Kd (nM)	empty controls
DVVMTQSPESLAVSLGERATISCKSSQSVLYESANKPSVAWYQQKAGQPPKLLIYWASTRESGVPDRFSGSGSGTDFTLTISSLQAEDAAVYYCQQYHRLQLSFGGGTKVEIK	3.79 / n.d. / 2.43	3.11	0/9
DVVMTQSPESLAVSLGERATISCKSSNSVLYESRNKNSVAWYQQKAGQPPKLLIYWVSTRESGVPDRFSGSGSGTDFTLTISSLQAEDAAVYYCQQYHRDPLSFGGGTKVEIK	n.d. / n.d. / 5.42	5.42	3/9 (4.35)
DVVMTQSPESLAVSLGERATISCKSHQSVLYESRNKNSMAWYQQKAGQPPKLLIYWASTRESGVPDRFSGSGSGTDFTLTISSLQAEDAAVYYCQQYHRRPLSFGGGTKVEIK	1.88 / 1.59 / 1.71	1.73	2/9 (4.90)
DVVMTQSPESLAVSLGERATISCKSSQSVLYSSRNKNSVAWYQQKAGQPPKLLIYWASTREVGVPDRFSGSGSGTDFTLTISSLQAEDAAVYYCQQYNRLPLSFGGGTKVEIK	3.19 / 2.38 / 2.24	2.60	0/9
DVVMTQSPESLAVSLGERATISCKSSQSVLYESRNKNSVAWYQQKAGQPPKLLIYYASTRESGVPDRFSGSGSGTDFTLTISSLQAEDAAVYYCQFYHRLPLSFGGGTKVEIK	0.42 / 0.67 / 1.41	0.83	2/9 (2.69)
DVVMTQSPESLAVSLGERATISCKSSQSVLYESRNKNSVAWYQQKAGQPPKLLIYAASTMESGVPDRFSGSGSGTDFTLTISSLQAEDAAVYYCQQYHVLPLSFGGGTKVEIK	1.30 / 1.18 / 1.33	1.27	4/9 (4.58)
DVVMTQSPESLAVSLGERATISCKSMQSVLDESRNKNSVAWYQQKAGQPPKLLIYWATTRESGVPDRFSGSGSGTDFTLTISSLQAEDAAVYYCQQYHRLPLSFGGGTKVEIK	0.24 / 0.61 / 0.29	0.38	3/9 (4.67)
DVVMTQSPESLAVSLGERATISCKSSVSNLKESRNKNSVAWYQQKAGQPPKLLIYWASTRESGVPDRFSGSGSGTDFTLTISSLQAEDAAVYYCQQYHRLPLSFGGGTKVEIK	0.71 / 1.01 / 1.06	0.93	0/9
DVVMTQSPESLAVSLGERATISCKSSQSVQYESRNHNSVAWYQQKAGQPPKLLIYPASTRESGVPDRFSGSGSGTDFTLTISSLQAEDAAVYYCQQYHRLPLSFGGGTKVEIK	n.d. / n.d. / n.d.	n.d.	2/9 (3.56)
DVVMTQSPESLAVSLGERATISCKSHQSVLTESRNKNSVAWYQQKAGQPPKLLIYWASTRESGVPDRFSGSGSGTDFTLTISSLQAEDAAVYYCQQYHRLPLKFGGGTKVEIK	4.87 / 3.05 / 4.15	4.02	5/9 (4.63)
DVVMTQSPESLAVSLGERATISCYSSQSVLYESRNKNSVAWYQQKAGQPPKLLIYWAGDRESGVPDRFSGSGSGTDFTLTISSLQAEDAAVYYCQQYHRLPLSFGGGTKVEIK	3.17 / 2.99 / 3.32	3.16	2/9 (4.59)
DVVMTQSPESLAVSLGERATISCKSSQSQLYESRNKNSVAWYQQKAGQPPKLLIYWKSTRESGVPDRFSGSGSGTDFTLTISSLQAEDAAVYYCQQYHRLPLCFGGGTKVEIK	2.64 / n.d. / n.d.	2.64	0/9
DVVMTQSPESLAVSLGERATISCKSSQSVIYESRNKNSVAWYQQKAGQPPKLLIYWASTSESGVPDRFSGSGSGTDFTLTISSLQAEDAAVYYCPQYHRLPLSFGGGTKVEIK	n.d. / n.d. / 3.22	3.22	1/9 (2.65)
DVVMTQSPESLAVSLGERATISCKSSQSVLYESVNKNSVAWYQQKAGQPPKLLIYWASTRMSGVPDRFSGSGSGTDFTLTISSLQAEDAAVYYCEQYHRLPLSFGGGTKVEIK	0.80 / 1.05 / 0.93	0.93	3/9 (5.36)
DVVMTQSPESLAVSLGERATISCKSSQSVLYEARNWNSVAWYQQKAGQPPKLLIYWASTRESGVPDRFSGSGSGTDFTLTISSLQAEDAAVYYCQQYHRLPLDFGGGTKVEIK	1.44 / 1.77 / 1.88	1.70	4/9 (3.97)
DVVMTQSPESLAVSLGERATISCKSSQSVLYESRNKNSVDWYQQKAGQPPKLLIYWASTRESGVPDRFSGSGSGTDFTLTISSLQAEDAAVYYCQQYHRLPLSFGGGTKVEIK	n.d. / n.d. / n.d.	n.d.	1/9 (3.19)
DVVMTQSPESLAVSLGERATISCKSSQSVLRESRNKCSVAWYQQKAGQPPKLLIYWASTRESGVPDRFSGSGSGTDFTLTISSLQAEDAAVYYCQQYHRLPLRFGGGTKVEIK	n.d. / n.d. / n.d.	n.d.	0/9

Again, the first 3 entries without any signal:

VL	replicates, log10 nM	mean log10 Kd (nM)	empty controls
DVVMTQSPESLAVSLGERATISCKSSQSVQYESRNHNSVAWYQQKAGQPPKLLIYPASTRESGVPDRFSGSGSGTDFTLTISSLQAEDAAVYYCQQYHRLPLSFGGGTKVEIK	n.d. / n.d. / n.d.	n.d.	2/9 (3.56)
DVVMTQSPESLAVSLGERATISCKSSQSVLYESRNKNSVDWYQQKAGQPPKLLIYWASTRESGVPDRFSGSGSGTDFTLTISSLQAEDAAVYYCQQYHRLPLSFGGGTKVEIK	n.d. / n.d. / n.d.	n.d.	1/9 (3.19)
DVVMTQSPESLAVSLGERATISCKSSQSVLRESRNKCSVAWYQQKAGQPPKLLIYWASTRESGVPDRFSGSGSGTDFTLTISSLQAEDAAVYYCQQYHRLPLRFGGGTKVEIK	n.d. / n.d. / n.d.	n.d.	0/9

Nonspecific signal, from three strains lacking the peptide, appeared in 18% of pairings of library AAYL50, centred on 4.19 (5% of these signals below 2.99); values are not corrected for it. Also given: how often the same scFv was detected with the empty control strains, with their mean in brackets.

The measurements come from Engelhart et al. 2022 (doi:10.1038/s41597-022-01779-4) through the FLAb antibody collection.